From ChEMBL document CHEMBL1155506 (J Med Chem, 2010)

Organism: Homo sapiens
Assay: Selectivity ratio of Ki for human recombinant 5HT2C receptor to Ki for human recombinant 5HT2C receptor

Structure (SMILES) | Ratio Ki
Cn1nccc1-c1cc(NC(=O)c2ccc(C(F)(F)F)cc2)ccc1OCCN1CCCC1 | 118
Cn1nccc1-c1cc(NC(=O)c2cccc(C(F)(F)F)c2)ccc1OCCN1CCCC1 | 1900
